Laboratory results published in ChEMBL document CHEMBL1123646, “2-Phenylpyrroles as conformationally restricted benzamide analogues. A new class of potential antipsychotics. 1” (J Med Chem, 1987).

Chains of the proteins cited; added tags and fusions are not shown.
UniProt P61169, whole entry: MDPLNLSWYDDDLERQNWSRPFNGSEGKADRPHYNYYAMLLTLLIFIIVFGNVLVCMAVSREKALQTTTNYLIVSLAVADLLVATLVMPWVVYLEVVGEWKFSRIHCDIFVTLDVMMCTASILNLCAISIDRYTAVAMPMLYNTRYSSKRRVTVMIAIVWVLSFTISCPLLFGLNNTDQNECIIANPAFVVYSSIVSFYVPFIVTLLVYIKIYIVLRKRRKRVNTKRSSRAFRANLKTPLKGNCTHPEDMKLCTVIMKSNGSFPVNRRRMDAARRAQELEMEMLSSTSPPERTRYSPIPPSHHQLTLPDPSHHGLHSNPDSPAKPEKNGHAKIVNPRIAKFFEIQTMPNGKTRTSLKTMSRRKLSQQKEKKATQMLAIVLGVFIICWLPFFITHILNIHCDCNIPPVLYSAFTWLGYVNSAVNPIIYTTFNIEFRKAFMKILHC

Target: D(2) dopamine receptor (Rattus norvegicus, UniProt P61169)
Assay: Ability to inhibit the [3H]spiperone binding to striatum Dopamine receptor D2 was determined in rat
Assay type: tissue-based

Ki: 5 nM
SMILES: COc1ccccc1N1CCN(CCNC(=O)c2ccc(F)cc2)CC1
